Assay results published in US20200270233A1, “DHFR INHIBITORS, COMPOSITIONS, AND METHODS RELATED THERETO” (Vyera Pharmaceuticais LLC, priority 2017, published 2020).

Chains of the proteins cited; added tags and fusions are not shown. Lines headed by an entry give the natural chain unless they say otherwise; changes in a name come on top.
UniProt Q27783: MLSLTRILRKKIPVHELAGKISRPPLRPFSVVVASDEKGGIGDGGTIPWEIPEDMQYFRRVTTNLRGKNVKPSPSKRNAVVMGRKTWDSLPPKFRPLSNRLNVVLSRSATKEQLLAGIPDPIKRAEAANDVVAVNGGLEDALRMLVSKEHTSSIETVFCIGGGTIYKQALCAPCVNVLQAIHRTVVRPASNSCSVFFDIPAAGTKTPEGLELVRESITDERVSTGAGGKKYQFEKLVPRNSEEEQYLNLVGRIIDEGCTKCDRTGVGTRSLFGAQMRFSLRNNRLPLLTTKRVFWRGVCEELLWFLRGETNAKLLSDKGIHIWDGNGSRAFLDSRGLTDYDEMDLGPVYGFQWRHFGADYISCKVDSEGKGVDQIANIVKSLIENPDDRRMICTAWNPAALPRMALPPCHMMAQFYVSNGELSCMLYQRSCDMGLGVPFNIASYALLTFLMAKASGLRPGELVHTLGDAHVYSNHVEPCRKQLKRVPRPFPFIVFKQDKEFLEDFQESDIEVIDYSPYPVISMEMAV

Molecular target: T. brucei DHFR (tbDHFR) (Trypanosoma brucei brucei, UniProt Q27783)
Test: biochemical

SMILES | IC50 [nM]
Cc1ncc(-c2cccc(N3CCN(c4cnc(N)nc4N)CC3)c2)cn1 [Compound 69, 5-(4-(3-(2-methylpyrimidin-5-yl)phenyl)piperazin-1-yl)pyrimidine-2,4-diamine] | 2
Nc1ncc(N2CCN(c3ccccc3)CC2)c(N)n1 [Compound 4, 5-(4-phenylpiperazin-1-yl)pyrimidine-2,4-diamine] | 31.6
Nc1ncc(N2CCN(c3cccc(-c4cncnc4)c3)CC2)c(N)n1 [Compound 74] | 5.62
CCc1ncc(-c2cccc(N3CCN(c4cnc(N)nc4N)CC3)c2)cn1 [Compound 95] | 3.8
COc1ncc(-c2cccc(N3CCN(c4cnc(N)nc4N)CC3)c2)cn1 [Compound 78, 5-(4-(3-(2-methoxypyrimidin-5-yl)phenyl)piperazin-1-yl)pyrimidine-2,4-diamine] | 2.09
Nc1ncc(N2CCN(c3cccc(-c4cnc(C(F)(F)F)nc4)c3)CC2)c(N)n1 [Compound 87] | 7.41
Nc1ncc(N2CCN(c3cccc(-c4cnc(C5CC5)nc4)c3)CC2)c(N)n1 [Compound 86] | 2.51
Nc1ncc(N2CCN(c3cccc(-c4cnc(Cl)nc4)c3)CC2)c(N)n1 [Compound 100] | 2.51
